Screening results from PubChem.
GIV Gai3 FP = GIV-Galpha-i interaction inhibition; AID 1224905; 210,000 tested, 0.42% active; Galpha-i3/FITC-GIV peptide fluorescence polarization, 90 min; stronger effect = lower value; scaled: aluminum fluoride 0%, vehicle 100%; percent of control (FP), % (concentration not given with the values);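 active = replicate mean at 85% of control or lower, very high polarization wells dropped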;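 also: wells of about 15 µL received 100 nL stock; the first replicate is given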
* = called active by the depositor. Many of the other results were omitted from the sample, so hits are more common in it than they were.

SMILES	GIV Gai3 FP
CS(=O)(=O)N1CCCC1c1cccc(F)c1 (configuration not stated)	99
COC(=O)c1cc(NC(=O)NCc2noc3ccccc23)cc(C(=O)OC)c1	99
CC1=C(C#N)c2nc(N)c(C#N)c(C)c2/C1=C\C=C\c1ccccc1	109
O=C1CC(=O)N(Cc2ccco2)C(=O)N1	59*
O=C1CC(=O)N(Cc2cccs2)C(=O)N1	114
O=C1C2C3c4ccccc4C(c4ccccc43)C2C(=O)N1Cc1ccco1 (configuration not stated)	106
O=C1c2[nH]nc(-c3ccc(F)cc3)c2C(c2ccc(Cl)cc2)N1c1ccccc1 (configuration not stated)	98
Cc1oc(CC(C)C)cc1C(=O)N1CCN(C(=O)c2cc(CC(C)C)oc2C)CC1	101
O=c1[nH]c(=O)c2nc3c(ccc4nsnc43)nc2[nH]1	120
Nc1ccc2nc(-c3ccccc3)c(-c3ccccc3)nc2c1	108
Nc1ccc2nc3c(=O)[nH]c(=O)[nH]c3nc2c1	18*
Cc1nc2sc3c(c2c(=O)o1)CCC(C)C3 (configuration not stated)	107
CCOC(=O)c1c(C)sc(-c2c(-c3cccc(Cl)c3)[nH]c3c2c(=O)n(C)c(=O)n3C)c1O	-63*
COC(=O)c1c(C)sc(-c2c(-c3ccc4ccccc4c3)[nH]c3c2c(=O)n(C)c(=O)n3C)c1O	155
CCOC(=O)c1c(C)sc(-c2c(-c3cc(C)ccc3C)[nH]c3c2c(=O)n(C)c(=O)n3C)c1O	195
Cc1ccc(-c2nc(I)ccc2O)cc1	105
COC(=O)c1ccc2c(=O)n(CCc3ccc(S(N)(=O)=O)cc3)c(SCc3c(F)cccc3F)nc2c1	112
Cc1cccc(-c2nc3ccccc3c(=O)o2)c1	100
CCN(CC)c1ccc2cc(-c3nnc(Nc4cc(F)ccc4C)s3)c(=O)oc2c1	267
CCN(CC)c1ccc2cc(-c3nnc(Nc4ccc(C)cc4)s3)c(=O)oc2c1	-70*
CCOC(=O)c1ccc(Nc2nnc(-c3cc4ccc(N(CC)CC)cc4oc3=O)s2)cc1	229
CC(C)NC(=O)C1CCCN(C(=O)[C@H]2CCCN2)C1 (some centres not stated)	107
CC(C)OP(=O)(OC(C)C)/C(CC12CC3CC(CC(C3)C1)C2)=N\O	107
CCn1c(O)c(C=Nc2cccc(O)c2)sc1=S	66*
CCn1c(O)c(C=Nc2ccccc2)oc1=S	92
CCn1c(O)c(C=Nc2cccc(Cl)c2)c(=O)[nH]c1=S	109
O=C(NCc1ccccc1Cl)c1ccc(CN2CC(=O)N3CSCC3C2=O)cc1 (configuration not stated)	105
Cc1c2cnn(CC(=O)Nc3ccc4c(c3)OCCO4)c(=O)c2c(C)n1Cc1ccc(F)cc1	102
CCOC(=O)N1CCN(C(=O)c2ccc3c(=O)n(-c4ccc(OC)c(OC)c4)c(=S)[nH]c3c2)CC1	103
CCN(CC)c1ccc2cc(-c3nc(-c4ccccc4)no3)c(=O)oc2c1	150
CCc1ccc(NC(=O)c2cc3ccccc3oc2=O)cc1	105
CCN(CC)c1ccc2cc(-c3nc4ccccc4c(=O)[nH]3)c(=N)oc2c1	8.2*
CCN(CC)c1ccc2cc(C(=O)Nc3ccccc3)c(=N)oc2c1	73*
CCN(CC)c1ccc2ccc(=O)oc2c1	137
CCN(CC)c1ccc2cc(C(=O)Nc3ccc(C)cc3)c(=N)oc2c1	136
O=C(NCc1cccc(F)c1)c1ccc2c(c1)sc1nc(-c3ccc(Cl)cc3)cn12	105
CCCCOc1ccc(C2C(N3C(=O)c4ccccc4C3=O)C(=O)N2c2cccc(C(F)(F)F)c2)cc1 (configuration not stated)	113
CCOC(=O)c1ccc(N2C(=O)C3C(c4ccc(Cl)cc4Cl)OC4(C(=O)c5ccccc5C4=O)C3C2=O)cc1 (configuration not stated)	101
CCC(c1nnnn1CCOC)N(Cc1cc2ccc(OC)cc2[nH]c1=O)C1CCCC1 (configuration not stated)	100
Brc1ccc(C(c2nnc(-c3ccccc3)o2)N2CCN(c3ccccn3)CC2)cc1 (configuration not stated)	102
COc1cc(/C=C/C(=O)/C=C/c2ccc(N(C)C)cc2)cc(OC)c1OC	-64*
CCCN(CCC)C(=O)/C=C/c1cc(OC)c(OC)c(OC)c1	105
CCN(C(=O)/C=C/c1cc(OC)c(OC)c(OC)c1)C1CCCCC1	103
Cc1nc2nc3c(c(Nc4ccccc4)n2n1)CCCC3	105
O=C1Nc2ccccc2/C1=C\c1c[nH]c2ccccc12	109

Pulled by structure from the list above (7):
SMILES	GIV Gai3 FP
CCC(c1nnnn1CCOC)N(Cc1cc2ccc(OC)cc2[nH]c1=O)C1CCCC1 (configuration not stated)	100
CCn1c(O)c(C=Nc2cccc(O)c2)sc1=S	66*
Cc1nc2nc3c(c(Nc4ccccc4)n2n1)CCCC3	105
O=c1[nH]c(=O)c2nc3c(ccc4nsnc43)nc2[nH]1	120
CCCCOc1ccc(C2C(N3C(=O)c4ccccc4C3=O)C(=O)N2c2cccc(C(F)(F)F)c2)cc1 (configuration not stated)	113
O=C1c2[nH]nc(-c3ccc(F)cc3)c2C(c2ccc(Cl)cc2)N1c1ccccc1 (configuration not stated)	98
Brc1ccc(C(c2nnc(-c3ccccc3)o2)N2CCN(c3ccccn3)CC2)cc1 (configuration not stated)	102

(continued)
SMILES	GIV Gai3 FP
O=C1/C(=C/c2cccc3ccccc23)Nc2ccccc21	57*
COC(=O)C1=C(C)NC(=O)/C1=C\c1cccc2ccccc12	113
C=CCNS(=O)(=O)c1c(C)[nH]c(=O)[nH]c1=O	101
O=C(O)c1ccc2nc(-c3cc4cccc(O)c4oc3=O)[nH]c2c1	95
COc1ccc(-c2cc3ccc(O)c(CN4CCN(C)CC4)c3oc2=O)cc1OC	119
CN1CCN(Cc2c(O)ccc3cc(-c4ccccc4)c(=O)oc23)CC1	111
CCC1CCCCN1Cc1c(O)ccc2cc(-c3nc4ccccc4[nH]3)c(=O)oc12 (configuration not stated)	-42*
CC1CCCN(Cc2c(O)ccc3cc(-c4nc5ccccc5[nH]4)c(=O)oc23)C1 (configuration not stated)	-33*
CC1CCCN(C/C(O)=C(\C#N)c2nc3ccccc3[nH]2)C1 (configuration not stated)	104
CN1CCN(Cc2c(O)ccc3cc(-c4nc5ccccc5[nH]4)c(=O)oc23)CC1	-75*
CC1CCCN(Cc2c(O)ccc3c(=O)c(Oc4ccccc4Cl)c(C(F)(F)F)oc23)C1 (configuration not stated)	99
CC1CCCCN1Cc1c(O)ccc2c3c(c(=O)oc12)CCC3 (configuration not stated)	102
CCOc1cccc2c1OC(c1ccccc1Cl)N1N=C(c3ccc(F)cc3)CC21 (configuration not stated)	104
COc1ccc(-c2noc(CSc3ccc(-c4ccccc4)nn3)n2)cc1OC	111
CCOc1ccc(-c2noc(-c3oc4ccc(S(=O)(=O)Nc5ccc(OC)cc5)cc4c3C)n2)cc1	102
COc1ccc(N2C(=O)c3ccccc3C2C(=O)NCCC(C)C)cc1Cl (configuration not stated)	107
CC(C)n1cnc2nc(CSc3ccc(NC(=O)COc4ccccc4)cc3)cc(=O)n21	103
Cc1csc(-c2cc(S(=O)(=O)Nc3ccc(C)c(F)c3)c(C)s2)n1	66*
Cc1csc(-c2cc(S(=O)(=O)Nc3cccc(Cl)c3)c(C)s2)n1	180
Cc1csc(-c2cc(S(=O)(=O)Nc3ccc(S(N)(=O)=O)cc3)c(C)s2)n1	170
CCCN1C(=O)/C(=C\C(=O)c2cccs2)c2ccccc21	101
CN(C)/C=c1\s/c(=C/C(=O)c2cccs2)[nH]c1=O	73*
CN(C)/C=C/C(=S)c1cccs1	114
O=C(NCCc1nnc2ccc(NCc3ccc(F)cc3)nn12)c1ccccc1F	106
COc1ccc(-c2nc3ccc(C(=O)NCCC4=CCCCC4)cc3nc2-c2ccc(OC)c(OC)c2)cc1OC	106
CCc1cc(C2CCCN2Cc2cc(Br)ccc2O)on1 (configuration not stated)	99
